What was measured:
[1] = target: Acetylcholinesterase (Homo sapiens, UniProt P22303); assay: Ability to inhibit acetylcholinesterase (AChE), freshly prepared from human erythrocytes
How it was run: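 AChE from freshly collected blood: erythrocytes washed five times in isotonic saline, lysed in 9 volumes of 0.1 M Na3PO4 pH 7.4 with 0.5% Triton-X, diluted to final 1:200. Compounds preincubated with enzyme 30 min at room temperature, then with substrate and DTNB 25 min at 37 °C, pH 8.0. Read-out 412 nm. Final range 0.3 nM–30 mM in half-log steps. IC50 from logit-activity versus log concentration. Four runs.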

Protein sequences, listed by entry. Tags and fused reporters are not part of them. Lines headed by an entry give the natural chain unless they say otherwise; changes in a name come on top.
UniProt P22303: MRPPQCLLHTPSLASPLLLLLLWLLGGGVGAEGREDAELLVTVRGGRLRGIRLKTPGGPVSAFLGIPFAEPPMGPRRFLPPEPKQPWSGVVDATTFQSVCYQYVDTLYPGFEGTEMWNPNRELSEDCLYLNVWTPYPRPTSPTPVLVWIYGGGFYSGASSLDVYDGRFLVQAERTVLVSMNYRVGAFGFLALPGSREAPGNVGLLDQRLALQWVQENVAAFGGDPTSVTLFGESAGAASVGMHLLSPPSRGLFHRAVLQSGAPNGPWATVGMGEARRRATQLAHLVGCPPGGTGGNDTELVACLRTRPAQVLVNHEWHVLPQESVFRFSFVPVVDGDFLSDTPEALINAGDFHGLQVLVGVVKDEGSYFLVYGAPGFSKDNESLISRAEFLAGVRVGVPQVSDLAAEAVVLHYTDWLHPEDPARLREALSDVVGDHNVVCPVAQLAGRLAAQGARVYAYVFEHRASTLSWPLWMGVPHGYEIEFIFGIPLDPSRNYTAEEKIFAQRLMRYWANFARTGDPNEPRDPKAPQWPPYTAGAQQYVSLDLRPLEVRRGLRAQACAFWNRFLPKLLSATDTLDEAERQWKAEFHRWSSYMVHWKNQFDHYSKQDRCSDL
UniProt P06276, whole entry: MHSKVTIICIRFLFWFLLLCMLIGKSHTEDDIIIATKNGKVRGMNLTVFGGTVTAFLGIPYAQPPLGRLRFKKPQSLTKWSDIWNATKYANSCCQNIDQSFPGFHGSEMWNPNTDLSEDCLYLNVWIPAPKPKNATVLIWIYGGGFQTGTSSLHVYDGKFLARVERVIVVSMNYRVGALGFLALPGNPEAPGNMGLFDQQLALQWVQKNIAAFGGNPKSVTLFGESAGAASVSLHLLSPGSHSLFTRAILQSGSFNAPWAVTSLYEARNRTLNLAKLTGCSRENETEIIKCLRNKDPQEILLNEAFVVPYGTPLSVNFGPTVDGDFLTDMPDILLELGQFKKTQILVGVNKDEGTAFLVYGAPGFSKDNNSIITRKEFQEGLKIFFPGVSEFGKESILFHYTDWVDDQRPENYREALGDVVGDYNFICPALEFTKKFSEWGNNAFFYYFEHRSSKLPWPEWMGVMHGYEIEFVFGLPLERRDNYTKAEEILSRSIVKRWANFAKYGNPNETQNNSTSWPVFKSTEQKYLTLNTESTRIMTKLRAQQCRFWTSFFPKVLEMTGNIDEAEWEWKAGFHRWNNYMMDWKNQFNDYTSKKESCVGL

[2] = target: Cholinesterase (Homo sapiens, UniProt P06276); assay: Ability to inhibit butyrylcholinesterase (BChE), freshly prepared from human plasma; format: cell-free

CC(C)c1ccc(NC(=O)Oc2ccc3c(c2)[C@]2(C)CCN(C)C2N3C)cc1 (some centres not stated)
IC50 [1]: 0.758 µM
IC50 [2]: 0.05 µM

Source: ChEMBL document CHEMBL1132219, “Synthesis of novel phenserine-based-selective inhibitors of butyrylcholinesterase for Alzheimer's disease” (J Med Chem, 1999)
